{"source": "ChEMBL document CHEMBL1143557", "about": "“Discovery of a fluoroindolo[2,3-a]carbazole clinical candidate with broad spectrum antitumor activity in preclinical tumor models superior to the marketed oncology drug, CPT-11” (J Med Chem, 2005)", "key": {"[1]": {"system": "HT-29", "assay": "Antitumor activity against HT-29 human colon carcinoma xenograft model; Activity expressed as no. of cures by total (8)"}, "[2]": {"system": "HT-29", "assay": "Optimal dose required for antitumor activity against HT-29 human colon carcinoma xenograft model when administered once a day iv dosing every other day for five doses (q2dx5,iv)"}, "[3]": {"system": "HT-29", "assay": "In vivo antitumor activity against HT-29 human colon carcinoma xenograft model when administered iv, (1:1:8 cremophor: ethanol: water vehicle) expressed as optimal effect in LCK"}}, "data": [{"smiles": "CCc1c2c(cc3ncc(OC(=O)N4CCC(N5CCCCC5)CC4)cc13)C1=CC3=C(COC(=O)[C@]3(O)CC)C(O)N1C2", "note": "(stereo partly drawn)", "values": [{"measurement": "No. of cures", "setting": "[1]", "value": 0}, {"measurement": "Optimal dose", "setting": "[2]", "value": 50, "unit": "mg.kg/inj"}, {"measurement": "Activity", "setting": "[3]", "value": 1.9}]}]}
